One compound from ChEMBL document CHEMBL3102815, “Structure Guided Optimization, in Vitro Activity, and in Vivo Activity of Pan-PIM Kinase Inhibitors” (ACS Med Chem Lett, 2013) can be followed below.

The chains behind the UniProt entries cited, without tags or fusion partners. Where a name states a change or a piece, a line headed by the entry shows the natural chain unless it says otherwise.
UniProt Q9P1W9: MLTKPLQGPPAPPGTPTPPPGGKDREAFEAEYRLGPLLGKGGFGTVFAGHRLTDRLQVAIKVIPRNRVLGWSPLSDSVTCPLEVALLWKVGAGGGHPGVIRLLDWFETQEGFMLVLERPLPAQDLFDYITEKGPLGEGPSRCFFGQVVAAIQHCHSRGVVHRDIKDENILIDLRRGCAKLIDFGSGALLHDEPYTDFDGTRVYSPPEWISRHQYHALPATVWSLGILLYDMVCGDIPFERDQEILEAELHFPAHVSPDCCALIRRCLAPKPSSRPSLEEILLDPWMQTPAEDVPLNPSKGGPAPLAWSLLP

SMILES strings stand for the structures.

What is called Ki is the equilibrium dissociation constant of an inhibitor or competing ligand from its target. A high value points to lower affinity.

The target of this experiment is Serine/threonine-protein kinase pim-2 (Homo sapiens, UniProt Q9P1W9).

Take `CN1CCC(CNc2ccc3ncc(-c4cccc(OC(F)(F)F)c4)n3n2)CC1` [SGI-1776]: the affinity, expressed as Ki, was 610 nM.
